“Also recorded” adds a separate entry of the source.
Experiments:
BTBR mice [1] = test: Open field test; assay type: in vivo; settings: 0.05 mg/kg daily for 14 days
Protocol: Open field test was performed as previously described (Han et al., 2012). 50×50 cm square open field arena with non-transparent white Plexiglas was used in this study. During the 10 min of trial, total distance moved, circling behavior (a complete 360-degree turn of nose angle with respect to the body center) and time in center (20×20 cm imaginary square) were measured by the video-tracking software (EthoVision XT 8.5, Noldus Technology).

[2] = system: BTBR hippocampal CA1 slices; test: Brain slice electrophysiology (spontaneous IPSC/EPSC); assay type: cell-based, mice; settings: 0.5 μM
[3] = system: Scn1a+/− hippocampal CA1 slices; test: as above; assay type: cell-based, mice; settings: 10 μM
BTBR mice [4] = test: Three-chamber social interaction test; settings: doses from 0.00625 mg/kg to 0.05 mg/kg; from approximately 1.0 untreated
Protocol: In the three-chamber test, a test mouse is placed in the center chamber, and the preference of the test mouse for interaction with an inanimate object (a small empty cage) in the left chamber vs. a stranger mouse in an identical cage in the right chamber using a digital camera and quantitative video-tracking analysis.
The test was performed as described previously (Han et al., 2012) with minor modifications. The threechamber apparatus is a non-transparent Plexiglas box (30×60 cm) with two transparent partitions that make left, center, and right chambers (30×20 cm). In the first 10-min session, a test mouse was placed in the center of the empty three-chamber unit to habituate the test mouse. The mouse was allowed to freely explore each chamber. In the second 10-min session, an age- and gender-matched same strain mouse that had never been exposed to the test mouse, was placed in one of the two wire cages. The empty wire cage as an inanimate object cue was placed on the other side. […] Time spent in each chamber, and time spent within a 5 cm radius proximal to each wire cage, as a close interaction were measured by the videotracking software (EthoVision XT 8.5, Noldus Technology). All data shown are means±s.e.m. and analyzed using two-way ANOVA with Bonferroni's post hoc analysis and one-way ANOVA with Tukey's post hoc analysis. […]

[5] = system: C57BL/6J hippocampal CA1 slices; test: Brain slice electrophysiology (spontaneous IPSC/EPSC); assay type: cell-based, mice; settings: 0.5 μM

O=C1CN=C(c2ccccc2Cl)c2cc([N+](=O)[O-])ccc2N1 [Clonazepam]
ratio of activity on Days 1 and 14 (BTBR mice [1]): did not alter
spontaneous EPSC amplitude [2]: without change in amplitude; also recorded: unchanged
spontaneous EPSC frequency [2]: decrease in frequency
spontaneous IPSC amplitude [2]: increased
spontaneous IPSC frequency [2]: significantly increased
sIPSC amplitude [3]: increased
sEPSC amplitude ([3]; listed as CLZ): without change in amplitude; also recorded: unchanged
sEPSC frequency ([3]; listed as CLZ): decrease in frequency; also recorded: decreased
sIPSC frequency ([3]; listed as CLZ): but not frequency; also recorded: unchanged
ratio of time spent interacting with the mouse vs. the object (BTBR mice [4]): approximately 2.5
spontaneous EPSC amplitude [5]: without change in amplitude; also recorded: not changed
spontaneous EPSC frequency [5]: decreased
spontaneous IPSC amplitude [5]: significant increase; also recorded: not changed
spontaneous IPSC frequency [5]: no change; also recorded: not changed

From patent publication US20150313913A1, “POSITIVE ALLOSTERIC MODULATORS OF THE GABA-A RECEPTOR IN THE TREATMENT OF AUTISM” (UNIVERSITY OF WASHINGTON THROUGH ITS CENTER FOR …, priority 2013, published 2015)
